Measured values reported in patent US12139488B2, “Pyrido[3,2-d]pyrimidine compounds uses thereof for treating a proliferative disease” (Universite de Montreal, priority 2021, dated 2024).

Tested on: pERK in HCT-116 cells (KRAS G13D)
Test: Phospho-ERK inhibition (AlphaLISA SureFire Ultra p-ERK 1/2), HCT116
Conditions: RAS-mutant HCT116 cells, FIG. 1
Description: All cancer cell lines (A375, A101D, A2058, RKO, HT29 SK-MEL 30, IPC298, HepG2, HCT-116, Lovo, SWV620, SW480, NCI-H358, NCI-H2122, Calu-6, NCIH2087, NCIH1755, NCIH1666 and Mewo) were obtained from ATCC and cultured in RPMI-1640 medium (Gibco) supplemented with 5% heat inactivated fetal bovine serum (FBS, Wisent) at 37° C. under 5% CO2. Cells were maintained in T175 flasks (Greiner). They were passaged by removing the culture medium, washing once in 10 mL of room temperature Phosphate Buffered Saline (PBS; Wisent) and incubating at 37° C. with 2 mL of 0.05% Trypsin (Thermo-Fisher). Trypsin was then inactivated by adding complete growth medium and the cells were then replated in a T175 culture dish at the appropriate dilution. All cell lines were routinely tested for mycoplasma contamination. Tissue type and mutational status of each cell line can be found in Table B.
AlphaLISA® SureFire® Ultra™ p-ERK 1/2 (Thr202/Tyr204) analysis was conducted on cells plated in 100 μL of complete RPMI-1640 growth medium in 96-well flat-bottomed transparent dishes (Costar) at a density indicated in Table C. Cells were maintained overnight at 37° C. under 5% CO2 before treatment with compounds' dilution series for one hour. The cell density in cells/cm^2 corresponds to cell number divided by the area of one well of a 96-well plate ([…]). […]
After treatment, media was removed and cells were lysed in 50 μL of 1× AlphaScreen Ultra Lysis Buffer (Perkin Elmer). […] After completion of the reactions, the signals were recorded on an EnVision plate reader (Perkin Elmer) using built in AlphaLISA® settings.
The effect of each compound dilution on the pERK signal was expressed in % inhibition and calculated as follows. […]
The ability of each compound to inhibit pERK signal was expressed as an IC50 value obtained by plotting the inhibition values for each data point of a dilution series and fitting the obtained curves using a log(agonist) versus response-variable slope (four parameters) function using GraphPadPrism (V7.0) or Dotmatics Screening Ultra platform. […]

| Structure (SMILES) | YMIN of pERK IC50 dose response curve (paradoxical induction of pERK signaling) |
| --- | --- |
| O=C(c1nn(-c2ccc3ncnc(Nc4c(F)ccc(NS(=O)(=O)c5cccc(Cl)c5Cl)c4F)c3n2)c2ccccc12)N1CCOCC1 | > −20% |
| Cc1c(Cl)cccc1S(=O)(=O)Nc1ccc(F)c(Nc2ncnc3ccc(-n4nc(C(=O)N5CCN(CCO)CC5)c5ccccc54)nc23)c1F | > −20% |
| CN1CCN(C(=O)c2cn(-c3ccc4ncnc(Nc5c(F)ccc(NS(=O)(=O)c6ccccc6Cl)c5F)c4n3)c3ccccc23)CC1 | > −20% |
